By UniProt entry, the sequences of proteins in these tests, tags left out. Residues count along the entry.
UniProt P00760, 24-246 limits assumed: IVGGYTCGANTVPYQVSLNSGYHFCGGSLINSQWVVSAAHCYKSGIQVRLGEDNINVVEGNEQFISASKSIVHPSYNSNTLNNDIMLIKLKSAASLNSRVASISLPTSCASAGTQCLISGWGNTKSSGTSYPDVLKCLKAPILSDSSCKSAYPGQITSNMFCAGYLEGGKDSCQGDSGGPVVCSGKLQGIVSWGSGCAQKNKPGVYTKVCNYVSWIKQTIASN

According to patent publication US8778876B2, “Small-molecule inhibitors of Dengue and West Nile virus proteases” (The Board of Regents of the University of Texas System, priority 2011, dated 2014):

Target: Bovine pancreatic trypsin (Bos taurus, UniProt P00760)
Conditions: second series analogs

For `Cc1cc(O)c2c(c1)C(=O)c1cc(O)cc(O)c1C2=O`, the Ki (read-out: Trypsin Ki2) was 5 µM and the “Trypsin Mechanism” value was “Uncompetitive”.
